Settings: 20 mg in 20 mL water, 25° C.
Procedure: The tests were conducted using Sartorius balances (Model SQP) and a pH meter (Brand: INESA, Model No. PHS-3E). 20 mg of the sample was weighed and transferred into a 20 mL volumetric flask with the remainder of the volume comprising water. The solution was mixed. The pH meter was calibrated with pH 4.0 and pH 6.8 standard buffer solutions at 25° C.

Structure (SMILES): CNC[C@H](O)c1ccc(O)c(O)c1 [epinephrine malonate]
- pH: 4.34

— US11505521B2, “Crystalline epinephrine malonate salt” (Biothea Pharma, Inc., priority 2018, dated 2022)
